Reference: patent US11999727B2 (Tango Therapeutics, Inc., priority 2020, dated 2024)

Amino acid sequences for entries named in this document (tags omitted).
UniProt O14744, whole entry: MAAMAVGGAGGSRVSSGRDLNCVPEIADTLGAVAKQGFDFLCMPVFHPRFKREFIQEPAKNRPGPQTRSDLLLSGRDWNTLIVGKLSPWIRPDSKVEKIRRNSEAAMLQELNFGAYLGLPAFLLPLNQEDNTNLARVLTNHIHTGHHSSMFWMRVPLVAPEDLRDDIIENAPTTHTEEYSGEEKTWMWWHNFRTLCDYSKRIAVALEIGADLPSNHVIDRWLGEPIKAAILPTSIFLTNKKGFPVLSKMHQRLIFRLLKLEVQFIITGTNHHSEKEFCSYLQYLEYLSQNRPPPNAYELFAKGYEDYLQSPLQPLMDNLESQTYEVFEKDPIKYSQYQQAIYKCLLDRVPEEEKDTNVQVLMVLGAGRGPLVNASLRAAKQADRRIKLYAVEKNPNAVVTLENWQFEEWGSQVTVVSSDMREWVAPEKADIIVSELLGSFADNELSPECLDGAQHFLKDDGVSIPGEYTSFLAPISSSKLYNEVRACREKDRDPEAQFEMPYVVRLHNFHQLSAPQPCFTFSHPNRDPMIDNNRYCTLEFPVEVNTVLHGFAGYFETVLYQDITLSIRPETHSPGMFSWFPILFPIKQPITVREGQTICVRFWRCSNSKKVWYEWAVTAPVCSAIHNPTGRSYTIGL
UniProt Q9BQA1, whole entry partner: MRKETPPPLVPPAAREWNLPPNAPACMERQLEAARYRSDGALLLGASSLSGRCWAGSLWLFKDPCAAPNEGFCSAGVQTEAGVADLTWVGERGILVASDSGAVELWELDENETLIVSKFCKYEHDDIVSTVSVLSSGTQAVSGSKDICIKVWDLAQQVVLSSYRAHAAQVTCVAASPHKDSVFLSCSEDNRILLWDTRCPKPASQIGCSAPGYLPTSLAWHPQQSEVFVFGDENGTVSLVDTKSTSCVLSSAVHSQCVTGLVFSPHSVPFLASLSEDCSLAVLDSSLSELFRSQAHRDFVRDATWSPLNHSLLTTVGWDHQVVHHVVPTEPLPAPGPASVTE

Assays:
[1] = target: T1, PRMT5 (Homo sapiens, UniProt O14744); experiment: PRMT5 biochemical IC50 assay with SAM as cofactor; conditions: read-out: SAM IC50
[2] = test system: HAP1 MTAP-deleted cell line; experiment: Viability assay, MTAP-deleted cell line; conditions: read-out: HAP1 MTAP deleted viability
[3] = target: T1, PRMT5; experiment: PRMT5 biochemical IC50 assay with MTA as cofactor; conditions: read-out: MTA IC50
[4] = test system: HAP1 MTAP-deleted cell line; experiment: SDMA in-cell western assay, HAP1 MTAP-deleted; format: cell-based
[5] = test system: HAP1 MTAP-intact cell line; experiment: SDMA in-cell western assay, HAP1 MTAP-intact; conditions: read-out: MTAP HAP1 intact IC50
[6] = target: T1, PRMT5; experiment: PRMT5 biochemical IC50 assay with no cofactor; conditions: read-out: No Cofactor/rel IC50

IC50 [1]: > 500 nM
IC50 [3]: > 500 nM
IC50 ([4]; read-out: HAP1 MTAP deleted IC50, HAP1 MTAP-deleted): 100 to 1000 nM
IC50 [5]: > 1000 nM
IC50 [6]: > 500 nM
SMILES: CCc1cc(NC(=O)C(=O)N2CC(C)C(F)(F)CC2c2ccc3[nH]ncc3c2)cnc1N (single isomer, unassigned)
IC50 [2]: 1000 to 10000 nM
MTAP intact/deleted ratio ([4]; IC50 ratio HAP1 MTAP-intact vs HAP1 MTAP-deleted): A (an IC50 ratio greater than or equal to 10 fold)
